Literature values, collected in PMC8679591, “FAPI-74 PET/CT Using Either ^18F-AlF or Cold-Kit ^68Ga Labeling: Biodistribution, Radiation Dosimetry, and Tumor Delineation in Lung Cancer Patients” (Journal of Nuclear Medicine, 2021).

Conditions: in vivo

## OC[C@H]1OC(O)[C@H]([18F])[C@@H](O)[C@@H]1O (stereo partly shown) [^18F-FDG]
  Effective dose: 0.020 mSv/MBq
